{"source": "ChEMBL document CHEMBL4017533", "about": "“Molecular Recognition of Agonists and Antagonists by the Nucleotide-Activated G Protein-Coupled P2Y2 Receptor” (J Med Chem, 2017)", "key": {"[1]": {"assay": "Selectivity ratio of IC50 for P2Y2 receptor Y306F mutant (unknown origin) to IC50 for wild type P2Y2 receptor (unknown origin)", "conditions": "Homo sapiens"}, "[2]": {"tested_on": "P2Y1 receptor (Homo sapiens)", "assay": "Selectivity ratio of IC50 for P2Y1 receptor Y303F mutant (unknown origin) to IC50 for wild type P2Y1 receptor (unknown origin)"}, "[3]": {"tested_on": "P2Y1 receptor (Homo sapiens)", "assay": "Selectivity ratio of IC50 for P2Y1 receptor K46A mutant (unknown origin) to IC50 for wild type P2Y1 receptor (unknown origin)"}, "[4]": {"tested_on": "P2Y1 receptor (Homo sapiens)", "assay": "Selectivity ratio of IC50 for P2Y1 receptor R195A mutant (unknown origin) to IC50 for wild type P2Y1 receptor (unknown origin)"}, "[5]": {"tested_on": "P2Y1 receptor (Homo sapiens)", "assay": "Selectivity ratio of IC50 for P2Y1 receptor A286W mutant (unknown origin) to IC50 for wild type P2Y1 receptor (unknown origin)"}}, "data": [{"compound": "CNc1nc(I)nc2c1ncn2[C@H]1C[C@H](OP(=O)(O)O)[C@]2(COP(=O)(O)O)C[C@H]12", "values": [{"measurement": "Ratio IC50", "setting": "[1]", "value": 129}, {"measurement": "Ratio IC50", "setting": "[2]", "value": 156}, {"measurement": "Ratio IC50", "setting": "[3]", "value": 23}, {"measurement": "Ratio IC50", "setting": "[4]", "value": 8}, {"measurement": "Ratio IC50", "setting": "[5]", "value": 45}]}]}
